Data reported in PMC11231141, “Ube3a unsilencer for the potential treatment of Angelman syndrome” (Nature Communications, 2024).

Test system: paternal UBE3A-YFP
Test: paternal UBE3A-YFP unsilencing, high-content imaging in mouse primary neurons (Ube3a m+/pYFP)
Type: cell-based
Details: Primary neuron, 72 h, read-out: EC50 for unsilencing paternal Ube3a-YFP

**Q.** Which EC50 does the source give for `C[C@H](C(=O)Nc1cc(C2CC2)[nH]n1)c1ccc(N2CCCC2=O)cc1` [(S)-PHA533533] here?
**A.** Its EC50 is 540 nM.
